## Measured affinities in a library of Ab-14 light chain variants

Target peptide (SARS-CoV-2 spike, HR2 region): PDVDLGDISGINAS

Parent: Ab-14, a human scFv built as VH, a 15-residue (Gly4Ser)3 linker, VL. Only the CDRs of the light chain vary.
VH: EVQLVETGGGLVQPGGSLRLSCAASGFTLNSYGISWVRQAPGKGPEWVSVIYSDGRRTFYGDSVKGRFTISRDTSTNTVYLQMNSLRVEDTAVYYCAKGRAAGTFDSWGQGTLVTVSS
VL: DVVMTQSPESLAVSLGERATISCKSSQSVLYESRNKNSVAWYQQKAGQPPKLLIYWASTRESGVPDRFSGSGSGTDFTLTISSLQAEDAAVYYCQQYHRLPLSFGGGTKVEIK

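Phage display of a naive human antibody library on the peptide gave the parent. In library AAYL50, one, two or three CDR residues were substituted; doubles and triples were drawn at random. In AlphaSeq, yeast of one mating type display the scFv and yeast of the other type display the target. Binding brings cells together so that they mate, and sequencing counts the barcode pairs among the diploids. A regression on co-assayed BCL2-family reference pairs converts the normalised counts of each replicate to an apparent Kd. There are three technical replicates.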

Each variant is given by its three light chain CDRs, as the data file delimits them; those of the parent are KSSQSVLYESRNKNSVA, WASTRES, QQYHRLPLS.
Scale: log10 of Kd in nM, estimated from mating counts; low values are strong binders.
A pair that was not seen in that replicate is written "n.d."; this usually means weak binding, but a binder can also be missed.

| CDR-L1 | CDR-L2 | CDR-L3 | log10 Kd, replicates | signal with controls |
|---|---|---|---|---|
| KSSQSVLYESRNKNSVA | WASTRPS | QQYHFSPLS | n.d. n.d. n.d. | 0 of 9 |
| KSSWSWLYESRNKNSVR | WASTRES | QQYHRLPLS | n.d. 4.38 3.92 | 2 of 9 (4.66) |
| KSFQSVLYCSRNKNSVA | WAQTRES | QQYHRLPLS | 6.15 4.82 n.d. | 4 of 9 (4.71) |
| KSSQSVLYESRNKNSVA | KDSTRES | QFYHRLPLS | 2.53 2.67 2.75 | 3 of 9 (4.60) |
| KSSQSVLYESRNWNSVA | WASTVES | QQYHRLPLW | n.d. n.d. n.d. | 3 of 9 (4.10) |
| KSVQSVLYESRNKNSVA | WASTRES | QQYHRLPLS | 1.57 1.65 1.68 | 6 of 9 (4.14) |
| KSSQSVLYEFRCKNSVA | WASTRES | SQYHRLPLS | 4.40 4.70 4.53 | 8 of 9 (4.41) |
| KSSQSVLSESRNKNSVA | WPSTAES | QQYHRLPLS | n.d. 5.15 5.19 | 0 of 9 |
| KSSQSVLYESRRKNSVA | HASTRES | QQYHRLPLF | 0.99 1.29 1.44 | 3 of 9 (3.93) |
| KSSQSVLYESRNKNSVA | WARTRES | SKYHRLPLS | 2.69 2.42 2.60 | 0 of 9 |
| KSSQSVLYESRNKMSVA | YASTAES | QQYHRLPLS | n.d. n.d. 3.81 | 0 of 9 |
| KSSQSVLYESRNKNSVA | WDSGRES | QQIHRLPLS | 4.24 n.d. 5.92 | 2 of 9 (4.51) |
| KSSQSVLYESRNHNSVA | TASSRES | QQYHRLPLS | 2.64 2.56 2.77 | 3 of 9 (4.31) |
| KSSQYVLYESKNKNSVA | WASTREL | QQYHRLPLS | n.d. n.d. n.d. | 2 of 9 (3.21) |
| NSSQSVLYESRNKNSVA | WASARES | QQLHRLPLS | 5.78 3.64 6.55 | 8 of 9 (4.71) |
| KSSQSVYYESRNKNSVA | WASTREW | YQYHRLPLS | n.d. n.d. n.d. | 2 of 9 (3.56) |
| KSYQSVLYESRNKNSVA | WASTTES | QQYHDLPLS | n.d. 1.78 n.d. | 0 of 9 |
| KSSQSVLYQSRPKNSVA | WASTRES | QQFHRLPLS | 2.36 1.98 2.01 | 1 of 9 (4.12) |
| KSSQSVLYEWRNKNSVA | EASTRES | QQYHREPLS | n.d. n.d. n.d. | 0 of 9 |
| KSSQSVLYESRNKNSVR | WCSTRHS | QQYHRLPLS | 5.75 n.d. 4.06 | 3 of 9 (4.76) |
| KSSQSVLYESRNINSVA | WASTRRS | QIYHRLPLS | n.d. 3.42 n.d. | 2 of 9 (4.45) |
| KMSQSVLYESRNKNSVA | WASTRES | QQYHRLPLG | n.d. 2.45 n.d. | 0 of 9 |
| KSSQICLYESRNKNSVA | WASTRES | QQYHYLPLS | 1.00 1.53 1.48 | 0 of 9 |
| KSSQGVLYESRNKNSVA | WASTRES | QQAMRLPLS | 2.39 2.04 1.99 | 2 of 9 (3.26) |
| KSVQSVLYYGRNKNSVA | WASTRES | QQYHRLPLS | 2.37 2.24 2.73 | 3 of 9 (4.29) |
| KCSQSVLYESRNGNSVA | WASTREH | QQYHRLPLS | 0.29 0.54 0.41 | 5 of 9 (5.25) |
| KSSQSVLYESRNKNSVA | WASVRES | QQYHRLPQW | n.d. n.d. n.d. | 1 of 9 (3.87) |
| KSSMSVLYESRNKNSVL | WASMRES | QQYHRLPLS | n.d. n.d. n.d. | 0 of 9 |
| KSSQSVLEESVNKNSQA | WASTRES | QQYHRLPLS | n.d. n.d. 4.65 | 2 of 9 (3.56) |
| KSSQSVLREIRNKNVVA | WASTRES | QQYHRLPLS | n.d. n.d. n.d. | 3 of 9 (3.60) |
| KSHQSVLYESRNKSSVA | WASTRES | QQYHRLPLS | 1.45 1.58 1.76 | 0 of 9 |
| KSSQSVLYESRNKLSVA | WASWRES | RQYHRLPLS | n.d. n.d. n.d. | 0 of 9 |
| KSSQSVLYSSRVKNPVA | WASTRES | QQYHRLPLS | 1.95 1.97 2.10 | 3 of 9 (3.99) |
| KSSQSVLYESRNKNSVK | WASTRES | QQKHRWPLS | n.d. n.d. n.d. | 0 of 9 |
| TSSQSVLYESRNTNSVA | WASTNES | QQYHRLPLS | n.d. n.d. 3.78 | 3 of 9 (3.33) |
| KSSQSVLNESRNKNSVA | WASTCAS | QQYHRLPLS | 1.90 1.90 1.88 | 1 of 9 (3.85) |
| KSSQSVLYESINKNSVA | WAQTRES | QQYHRGPLS | n.d. n.d. n.d. | 0 of 9 |
| KSSFSVLYTSRNKNSVA | WASTRES | QQYHRLMLS | n.d. n.d. n.d. | 2 of 9 (4.81) |
| KSSQSVLYEGRFKNSVA | WAVTRES | QQYHRLPLS | 1.68 1.96 2.02 | 0 of 9 |
| KSSMSVAYESRNKNSVN | WASTRES | QQYHRLPLS | n.d. n.d. n.d. | 2 of 9 (2.99) |
| KSSQSVLYESRNKNSVA | WASTTSS | FQYHRLPLS | 2.54 2.73 2.78 | 1 of 9 (3.52) |
| KSSQSVLYESKNQNSVA | WASTRES | NQYHRLPLS | -0.12 0.38 0.17 | 3 of 9 (4.11) |

3 of these entries, quoted again:

| CDR-L1 | CDR-L2 | CDR-L3 | log10 Kd, replicates | signal with controls |
|---|---|---|---|---|
| KSSQSVLYEFRCKNSVA | WASTRES | SQYHRLPLS | 4.40 4.70 4.53 | 8 of 9 (4.41) |
| NSSQSVLYESRNKNSVA | WASARES | QQLHRLPLS | 5.78 3.64 6.55 | 8 of 9 (4.71) |
| KSSQSVLYESRNKNSVA | WASTRPS | QQYHFSPLS | n.d. n.d. n.d. | 0 of 9 |

In this assay the parent's reference entry averaged 0.65; its copy inside this library read 1.68.
As a blank, each scFv also met three strains without target: over library AAYL50, 18% of these pairings were detected, typically at 4.19 and seldom below 2.99. For each scFv, signals with the empty controls are counted beside the result, with their mean in brackets.

Data: MIT Lincoln Laboratory AlphaSeq set, Engelhart et al. 2022, doi:10.1038/s41597-022-01779-4, as distributed in FLAb.